Test system: TNFα
Assay: Cot Monocyte TNFα Cell Based Assay
Conditions: read-out: EC50 TNF, LPS-stimulated human monocytes

## Cc1nc(F)ccc1C(Nc1cc(Cl)c2ncc(C#N)c(N[C@H](CCC#N)c3ccccc3)c2c1)c1cn(C2CC2)nn1 (stereo partly drawn) [Example 72, 8-chloro-4-(((R)-3-cyano-1-phenyl-propyl)amino)-6-(((1-cyclopropyl-1H-1,2,3-triazol-4-yl)(6-fluoro-2-methylpyridin-3-yl)methyl-d)amino)quinoline-3-carbonitrile]
  EC50: 11 nM
